Values of other authors, collected in patent US6997270B2, “Compounds and method for generating a highly efficient membrane in water-based drilling fluids” (Halliburton Energy Services, Inc., priority 2000, dated 2006).

Conditions: cited from earlier work

silicic acid
pKa: 9.8
